# From patent US20250387420A1, “Prevention of Nausea and Vomiting from Antibody-Drug Conjugates and other Long-Acting Emetogenics” (Helsinn Healthcare SA, priority 2024, published 2025)
# Columns and labels:
# [1] = system: patients with HER2+/HER2-low MBC treated with T-DXd; test: Association between N&V in one cycle and fatigue in the next, logistic regression; assay type: in vivo, human; conditions: for Probability to Develop Fatigue: estimate from logistic model
# [2] = system: patients with HER2-positive ABC treated with T-DXd; conditions: at data cutoff; 59 patients
substance,measurement,setting,value
trastuzumab deruxtecan [T-DXd],Probability to Develop Fatigue,[1]; Previous CINV NO,0.2176
same,Probability to Develop Fatigue,[1]; Previous CINV YES,0.4579
same,estimated probability of developing fatigue,[1]; patients who experienced NV in the prior cycle,45.8%
same,estimated probability of developing fatigue,[1]; patients without NV in the prior cycle,21.8%
same,patients who discontinued due to death,[2],7%
